Data from PubChem BioAssay AID2013 (Sanford-Burnham Center for Chemical Genomics, 2009).
This is a selection; strong and weak results do not stand in their true shares. Entries with a potency or affinity are not part of this list. Activity calls are given as the source filed them.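 How the source made its calls: active means spots per cell inhibited over 60%, with over 100 cells counted and total cytoplasm intensity under 500,000; inconclusive means wells with under 100 cells, flagged as likely toxic; inactive means the rest.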

The chains behind the UniProt entries cited, without tags or fusion partners. Where a name states a change or a piece, a line headed by the entry shows the natural chain unless it says otherwise.
UniProt Q9Y2T6: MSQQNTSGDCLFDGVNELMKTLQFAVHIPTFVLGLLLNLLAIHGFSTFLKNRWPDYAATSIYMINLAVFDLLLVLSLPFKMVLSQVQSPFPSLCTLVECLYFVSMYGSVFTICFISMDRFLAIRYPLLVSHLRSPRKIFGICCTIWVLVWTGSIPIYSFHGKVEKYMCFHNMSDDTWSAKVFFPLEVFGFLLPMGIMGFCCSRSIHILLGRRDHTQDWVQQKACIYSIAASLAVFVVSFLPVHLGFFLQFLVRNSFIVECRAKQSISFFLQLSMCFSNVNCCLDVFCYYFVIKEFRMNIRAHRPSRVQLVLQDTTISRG

The molecules below were run against G-protein coupled receptor 55 (Homo sapiens) (UniProt Q9Y2T6) (assay: inhibition of LPI-stimulated GPR55 beta-arrestin translocation – imaging, U2OS, beta-arrestin-GFP, LPI agonist, primary screen (AID 2013;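 further: U2OS cells stably carrying GPR55 and arrestin-GFP stimulated by 5 µM LPI near EC80; imaged beta-arrestin-GFP aggregate spots per cell after agonist stimulation; plate controls were LPI-stimulated DMSO wells for no effect and DMSO wells without LPI for full effect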)). Conditions: LPI antagonism, at 10 µM, hits give high values.

| Structure (SMILES) | inhibition |
| --- | --- |
| CCCOP(=S)(Nc1nc(N)cc(=O)[nH]1)OCCC | inactive: 5.6% |
| Nc1cccc2c([As](=O)(O)O)cccc12 | inactive: 13% |
| Cc1ccc(NCCc2c([N+](=O)[O-])cc([N+](=O)[O-])cc2[N+](=O)[O-])cc1 | inactive: 3.6% |
| O=[As](O)(c1cccc(O)c1)c1cccc(O)c1 | inactive: 9.7% |
| Cc1cccc(OCC(=O)OC2CN3CCC2CC3)c1 (stereo not drawn) | inactive: 11.8% |
| CS(=O)(=O)c1ccc(Cl)c(NC(=O)COC(=O)C(O)(c2ccccc2)c2ccccc2)c1 | inactive: 12.5% |
| COc1cc(C(=O)NCC2(N3CCOCC3)CCCCC2)cc(Cl)c1OC(C)C | inactive: 7.3% |
| O=[As](O)(O)c1cccnc1 | inactive: 11.9% |
| O=C(OC1CN2CCC1CC2)c1ccc(Cl)cc1 (stereo not drawn) | inactive: 2.1% |
| O=[N+]([O-])c1ccc2c(c1)nnn2O | inactive: 8.7% |
| CCOP1(=S)c2c(C)nn(CCC#N)c2N=C(c2ccc(F)cc2)N1C (stereo not drawn) | inactive: 2.8% |
| CN(C(=O)Cc1ccccc1)[C@@H]1CC[C@]2(CCCO2)C[C@H]1N1CCCC1 | inactive: 4.5% |
| NC(=O)Nc1ccc([As](=O)(O)O)cc1 | inactive: 2.4% |
| Nc1ccccc1[As](=O)(O)c1ccccc1 | inactive: -7.2% |
| O=C(O)COc1ccc([As](=O)(O)O)cc1[N+](=O)[O-] | inactive: -2.9% |
| CS(=O)(=O)c1cc([N+](=O)[O-])c2no[n+]([O-])c2c1 | inactive: 9.6% |
| O=P(Nc1nccs1)(c1ccccc1)c1nc2ccccc2s1 (stereo not drawn) | inactive: -8.1% |
| O=P(Nc1nccs1)(Oc1ccccc1)Oc1ccccc1 | inactive: -13.6% |
| CCOP1(=S)c2c(C)nn(CCC#N)c2N=C(c2ccccc2F)N1C (stereo not drawn) | inactive: 27.6% |

| Structure (SMILES) | inhibition |
| --- | --- |
| O=P1(Nc2ccc(Br)cn2)COc2ccccc2OC1 | inactive: 5% |
| O=[As](O)(c1cccs1)c1cccs1 | inactive: 1.7% |
| Cc1ccc(OCC(=O)OC2CN3CCC2CC3)cc1 (stereo not drawn) | inactive: 1.8% |
| Nc1cccc([As](=O)(O)c2ccccc2)c1 | inactive: 5.8% |
| O=P1(Nc2ncccn2)COc2ccccc2OC1 | inactive: -1.9% |
| O=C(/C=C/c1ccccc1)OC1CN2CCC1CC2 (stereo not drawn) | inactive: 5.8% |
| CN(C)C1(CNC(=O)c2ccc(S(C)(=O)=O)cc2)CCCCC1 | inactive: 4.5% |
| CC1CCC(C(C)C)C(OP(=O)(Nc2ccccn2)c2ccccc2)C1 (stereo not drawn) | inactive: 6.6% |
| Cc1ccc(C(=O)OC2CN3CCC2CC3)cc1 (stereo not drawn) | inactive: 2% |
| Cc1nn(-c2ccccc2)c2c1P(=O)(N1CCOCC1)N(C)C(c1ccccc1)=N2 (stereo not drawn) | inactive: 0.2% |
| O=[As](O)(c1ccccc1Br)c1ccccc1Br | inactive: 6% |
| CC(C)/C=N\N=C(\N)N[N+](=O)[O-] | inactive: -5% |
| CN(C(=O)Cc1ccc(Cl)c(Cl)c1)[C@@H]1CCCC[C@H]1N1CCCC1 | inactive: -2.3% |
| CC(C)(C)C(=O)NC(Sc1ncccn1)C(Cl)(Cl)Cl (stereo not drawn) | inactive: -6.2% |
| Clc1n[nH]nc1-c1nn[nH][15n]1 | inactive: 23.6% |
| CCOP(=O)(Nc1ccc(C)cn1)OCC | inactive: -1.7% |
| CCOP(=O)(NC(=NC(C)c1ccccc1)NC(C)c1ccccc1)OCC (stereo not drawn) | inactive: 10.4% |
| O=P1(Nc2ccccn2)COc2ccccc2OC1 | inactive: -3.2% |
| CCC1=CC2Cc3nc4ccc(Cl)cc4c(N)c3C(C1)C2 (stereo not drawn) | inactive: 10.7% |
